Measurements published in PubChem BioAssay AID1274 (Emory University Molecular Libraries Screening Center, 2008).
The list shows a part of the results, in another mix than the full data. Some structures show a salt or complex split into parts, the way the source records it. Calls of active or inactive are those of the source.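 Rule for the calls: active = inhibition above about 30% (limit read from the data); inactive = the rest.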

Chains of the proteins cited; added tags and fusions are not shown.
UniProt P14598, whole entry: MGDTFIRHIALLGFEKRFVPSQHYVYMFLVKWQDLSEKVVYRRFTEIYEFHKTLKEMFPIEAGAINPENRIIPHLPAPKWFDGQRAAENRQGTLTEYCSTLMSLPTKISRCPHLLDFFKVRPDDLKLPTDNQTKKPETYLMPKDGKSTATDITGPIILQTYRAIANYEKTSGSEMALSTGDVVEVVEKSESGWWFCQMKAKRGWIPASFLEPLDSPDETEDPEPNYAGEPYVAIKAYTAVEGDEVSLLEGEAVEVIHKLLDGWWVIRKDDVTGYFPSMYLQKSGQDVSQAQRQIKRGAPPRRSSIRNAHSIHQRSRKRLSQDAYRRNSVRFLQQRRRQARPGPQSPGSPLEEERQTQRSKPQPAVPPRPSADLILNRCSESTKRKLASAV

The compounds below were run against Neutrophil cytosol factor 1 (Homo sapiens) (UniProt P14598) (assay: p47phox/p22phox peptide binding inhibitors, primary screen, biochemical, uHTS, NADPH oxidase regulatory subunit (AID 1274;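 note: 0% = p47phox with labelled peptide and 100% = labelled peptide alone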)). Details: fluorescence polarization, 2 h, at 24.7 µM, stronger effect = higher value.
In the case of `COc1ccccc1OP(C)(=O)Nc1ccc(Br)cc1` (stereo not drawn), the inhibition is reported as inactive: 3.82%. With `COc1ccc(OP(C)(=O)Nc2ccccn2)cc1` (stereo not drawn) the inhibition was inactive: 6.3%. With `CN(C)CCOC(=O)C(O)(c1ccccc1)C1CCCC1` (stereo not drawn) the inhibition was inactive: 2.43%. For `O=[N+]([O-])c1cc([N+](=O)[O-])c(Nc2ccccn2)c([N+](=O)[O-])c1`, the inhibition was inactive: 2.36%. `Cc1c(NP(C)(=O)Oc2ccc(C(C)C)cc2)c(=O)n(-c2ccccc2)n1C` (stereo not drawn) was tested, and the inhibition was inactive: -5.33%. In the case of `COc1ccccc1OP(C)(=O)Nc1ccc(C)cc1C` (stereo not drawn), the inhibition is reported as inactive: -4.72%. `CP(=O)(Nc1ccccn1)Oc1ccccc1` (stereo not drawn) was tested, and the inhibition was inactive: -6.46%. In the case of `CCc1ccc(OP(C)(=O)O)cc1`, the inhibition is reported as inactive: -3.19%. With `Cc1cc(C)cc(OP(C)(=O)Nc2cccc(C(F)(F)F)c2)c1` (stereo not drawn) the inhibition was inactive: -4.8%. In the case of `COc1ccccc1OP(C)(=O)Nc1ccc(C)c(C)c1` (stereo not drawn), the inhibition is reported as inactive: 2.09%. With `COc1ccc(OP(C)(=O)Nc2ccccc2Br)cc1` (stereo not drawn) the inhibition was inactive: -12.2%. `Cc1nc2ccc3ccccc3c2o1.O=[N+]([O-])c1cc([N+](=O)[O-])c(O)c([N+](=O)[O-])c1` was tested, and the inhibition was inactive: -1.61%. With `CP(=O)(OCCOc1ccccc1)OCCOc1ccccc1` the inhibition was inactive: -4.5%. `CP(=O)(Nc1ccc(Cl)cc1Cl)Oc1ccccc1` (stereo not drawn) was tested, and the inhibition was inactive: -16.2%. For `CCOC(=O)c1ccc(NP(C)(=O)Oc2ccc(Cl)cc2)cc1` (stereo not drawn), the inhibition was inactive: -5.93%. In the case of `CP(=O)(OC12CC3CC(CC(C3)C1)C2)OC12CC3CC(CC(C3)C1)C2`, the inhibition is reported as inactive: -4.59%. In the case of `COc1ccc(OP(C)(=O)Nc2ccc(Br)cc2)cc1` (stereo not drawn), the inhibition is reported as inactive: -9.25%. For `CCN(CC)CC(O)COC(=O)C(O)(c1ccccc1)C1CCCCC1` (stereo not drawn), the inhibition was inactive: 10.2%. With `O=C(OCCCN1CCCC1)C(O)(c1ccccc1)C1CCCCC1` (stereo not drawn) the inhibition was inactive: 1.25%. In the case of `CCc1ccc(OP(C)(=O)Nc2cccnc2)cc1` (stereo not drawn), the inhibition is reported as inactive: -1.65%. In the case of `CP(=O)(Oc1ccccc1)N1CCOC1=O` (stereo not drawn), the inhibition is reported as inactive: -1.68%. In the case of `CC(C)(C)c1ccc(OP(C)(=O)O)cc1`, the inhibition is reported as inactive: 3.71%. `COc1ccccc1OP(C)(=O)Nc1ccccc1Br` (stereo not drawn) was tested, and the inhibition was inactive: 5.32%. For `CP(=O)(Nc1ccc(Cl)cc1)Oc1ccc(F)cc1` (stereo not drawn), the inhibition was inactive: -13.9%. In the case of `CN(C)C(=O)c1c([N+](=O)[O-])cc([N+](=O)[O-])cc1[N+](=O)[O-]`, the inhibition is reported as inactive: -12.4%. With `CP(=O)(Nc1ccc(SC(F)(F)F)cc1)Oc1ccc(F)cc1` (stereo not drawn) the inhibition was inactive: -1.57%. In the case of `CCOP(C)(=S)SCC(=O)NC(C)(CC)C(=O)O` (stereo not drawn), the inhibition is reported as inactive: 8.03%. With `CP(=O)(Nc1ccc2c(c1)OCCO2)Oc1ccccc1` (stereo not drawn) the inhibition was inactive: -3.57%. `Cc1ccccc1NP(C)(=O)Nc1ccccc1C` was tested, and the inhibition was inactive: -8.23%. With `COc1ccc(OP(C)(=O)Nc2cccc(Br)c2)cc1` (stereo not drawn) the inhibition was inactive: -9.58%. In the case of `CN(C)CCOC(=O)C(O)(c1ccccc1)C1CCCCC1` (stereo not drawn), the inhibition is reported as inactive: -16.6%. `COc1ccc(NP(C)(=O)Oc2ccccc2OC)cc1` (stereo not drawn) was tested, and the inhibition was inactive: 4.67%. For `O=[N+]([O-])c1ccc(OP2(=O)COCCO2)cc1` (stereo not drawn), the inhibition was inactive: 0.13%. With `O=[N+]([O-])c1cc([N+](=O)[O-])c(NCC2CCS(=O)(=O)C2)c([N+](=O)[O-])c1` (stereo not drawn) the inhibition was inactive: -7.17%. With `Cc1cc(-c2cccc3ccccc23)c(C)cn1.O=[N+]([O-])c1cc([N+](=O)[O-])c(O)c([N+](=O)[O-])c1` the inhibition was inactive: -7.02%. For `CCOC(=O)c1ccc(NP(C)(=O)Oc2ccc(F)cc2)cc1` (stereo not drawn), the inhibition was inactive: 10.6%. `COc1ccc(OP(C)(=O)Nc2ccc(SC(F)(F)F)cc2)cc1` (stereo not drawn) was tested, and the inhibition was inactive: -5.77%. In the case of `CCN(CC)CCCOC(=O)C(O)(c1ccccc1)C1CCCCC1` (stereo not drawn), the inhibition is reported as inactive: 4.8%. `CP(=O)(Nc1ccccc1)Oc1ccc(F)cc1` (stereo not drawn) was tested, and the inhibition was inactive: -9.4%. With `CCCCCOc1ccc(NP(C)(=O)Oc2ccc(Cl)cc2Cl)cc1` (stereo not drawn) the inhibition was inactive: -4.59%. In the case of `CP(=O)(Nc1ccccc1F)Oc1ccccc1` (stereo not drawn), the inhibition is reported as inactive: -9.87%. For `CC(C)c1ccc(OP(C)(=O)Nc2ccc(SC(F)(F)F)cc2)cc1` (stereo not drawn), the inhibition was inactive: -5.2%. `O=C(OC1CN2CCC1CC2)c1ccc([N+](=O)[O-])cc1` (stereo not drawn) was tested, and the inhibition was inactive: 22.6%. With `O=C(OCCN1CCN(CCOCc2ccccc2)CC1)C(O)(c1ccccc1)c1ccccc1` the inhibition was inactive: -8.52%. With `COc1ccc2c(c1O)-c1c(O)c(OC)cc3c1[C@H](C2)[N+](C)(C)CC3.O=[N+]([O-])c1cc([N+](=O)[O-])c([O-])c([N+](=O)[O-])c1[O-]` the inhibition was inactive: 9.83%. `COc1ccccc1OP(C)(=O)Nc1cccc(Br)c1` (stereo not drawn) was tested, and the inhibition was inactive: 2.21%. With `CCOC(=O)c1ccc(NP(C)(=O)Oc2cc(C)cc(C)c2)cc1` (stereo not drawn) the inhibition was inactive: -1.33%. For `Cc1cc(C)cc(OP(C)(=O)Nc2ccc(C)cc2C)c1` (stereo not drawn), the inhibition was inactive: -3.13%. For `Cc1ccc(C)c(NP(C)(=O)Oc2ccccc2)c1` (stereo not drawn), the inhibition was inactive: -9.31%. In the case of `CP(=O)(Nc1cccc(Br)c1)Oc1ccccc1` (stereo not drawn), the inhibition is reported as inactive: 4.52%. With `Cc1cc(C)cc(OP(C)(=O)Nc2ccccn2)c1` (stereo not drawn) the inhibition was inactive: -3.24%. For `O=C(O)c1cccc(Nc2c([N+](=O)[O-])cc([N+](=O)[O-])cc2[N+](=O)[O-])c1`, the inhibition was inactive: -14.4%. With `CC1=NCCc2c1[nH]c1ccccc21.O=[N+]([O-])c1cc([N+](=O)[O-])c(O)c([N+](=O)[O-])c1` the inhibition was inactive: -2.54%. For `CCOC(=O)C(CC)C1=NC(C)(C)Cc2ccccc21.O=[N+]([O-])c1cc([N+](=O)[O-])c(O)c([N+](=O)[O-])c1` (stereo not drawn), the inhibition was inactive: -15.3%. For `O=[N+]([O-])c1cc([N+](=O)[O-])c(Nc2nnnn2CCO)c([N+](=O)[O-])c1`, the inhibition was inactive: -3.45%. For `COc1ccccc1OP(C)(=O)Nc1c(C)cccc1C` (stereo not drawn), the inhibition was inactive: -5.11%. In the case of `CN1CCCCC1COC(=O)C1(O)c2ccccc2CCc2ccccc21` (stereo not drawn), the inhibition is reported as inactive: 10.4%. With `CP(=O)(Nc1ccc(SC(F)(F)F)cc1)Oc1ccccc1` (stereo not drawn) the inhibition was inactive: -0.6%. With `CCCOc1ccc(NP(C)(=O)Oc2ccc(Cl)cc2)cc1` (stereo not drawn) the inhibition was inactive: -0.09%. For `O=[N+]([O-])c1cc([N+](=O)[O-])c(-n2nnc3ccccc32)c([N+](=O)[O-])c1`, the inhibition was inactive: 1.59%. In the case of `Cc1nc2ccc3ccccc3c2s1.O=[N+]([O-])c1cc([N+](=O)[O-])c(O)c([N+](=O)[O-])c1`, the inhibition is reported as inactive: 0.55%. For `CP(=O)(Oc1ccccc1)OC(c1ccccc1)C(F)(F)F` (stereo not drawn), the inhibition was inactive: -9.85%. In the case of `Cc1cccc(C)c1OP(C)(=O)Nc1ccc(SC(F)(F)F)cc1` (stereo not drawn), the inhibition is reported as inactive: -11.3%. `CP(=O)(Nc1ccc(SC(F)(F)F)cc1)Oc1ccc(Cl)cc1` (stereo not drawn) was tested, and the inhibition was inactive: -3.72%. With `Cc1cc(C)cc(OP(C)(=O)Nc2ccc(SC(F)(F)F)cc2)c1` (stereo not drawn) the inhibition was inactive: 10.3%. `CCc1ccc(OP(C)(=O)N2CCN(c3ccc([N+](=O)[O-])cc3)CC2)cc1` (stereo not drawn) was tested, and the inhibition was inactive: 0.89%. For `CP(=O)(NC(=O)Nc1ccccc1)Oc1ccccc1` (stereo not drawn), the inhibition was inactive: -3.56%. `CCOC(=O)c1ccc(NP(C)(=O)Oc2ccc(OC)cc2)cc1` (stereo not drawn) was tested, and the inhibition was inactive: -0.63%. In the case of `CCOP(C)(=S)SCC(=O)NC(C)C(=O)O` (stereo not drawn), the inhibition is reported as inactive: -15.2%. In the case of `CP(=O)(Nc1ccccn1)Oc1ccc(Cl)cc1` (stereo not drawn), the inhibition is reported as inactive: -2.69%. In the case of `CP(=S)(Nn1cnnc1)Oc1ccccc1` (stereo not drawn), the inhibition is reported as inactive: -1.74%. In the case of `CP(=O)(Nc1ccccc1Br)Oc1ccccc1` (stereo not drawn), the inhibition is reported as inactive: -21.4%. `COc1ccccc1OP(C)(=O)Nc1ccccc1` (stereo not drawn) was tested, and the inhibition was inactive: 0.8%. `O=[N+]([O-])c1ccc2c(c1)C=Nc1ccccc1O2` was tested, and the inhibition was inactive: -13.4%. For `Cc1cccc(C)c1OP(C)(N)=O` (stereo not drawn), the inhibition was inactive: -1.3%. In the case of `CC(C)(C)c1ccc(OP(C)(=O)Nc2ccc(SC(F)(F)F)cc2)cc1` (stereo not drawn), the inhibition is reported as inactive: -11.1%. With `Cc1ccc(NP(C)(=O)Oc2ccccc2)c(C)c1` (stereo not drawn) the inhibition was inactive: 4.03%. With `COc1ccccc1OP(C)(=O)Nc1ccc(C)cc1` (stereo not drawn) the inhibition was inactive: -0.13%. `CCOC(=O)c1ccc(NP(C)(=O)Oc2ccccc2)cc1` (stereo not drawn) was tested, and the inhibition was inactive: -8.29%. `Cc1cc(C)cc(OP(C)(N)=O)c1` (stereo not drawn) was tested, and the inhibition was inactive: -14.2%. For `COc1ccc(OP(C)(=O)Nc2cccc(F)c2)cc1` (stereo not drawn), the inhibition was inactive: -0.5%. `COc1ccccc1OP(C)(=O)Nc1cc(Cl)ccc1C` (stereo not drawn) was tested, and the inhibition was inactive: 4.4%. `CCN(CC)CCCOC(=O)C(O)(c1ccccc1)c1ccccc1` was tested, and the inhibition was inactive: 4.47%.
